Measurements published in patent US20260070979A1.

Target: Cyno TIGIT-Flag/His (cynomolgus monkey)
Assay: SPR (ProteOn XPR36), antibody captured, cyno TIGIT-Flag/His as analyte, 25 C, 1:1 model

Substance | Kd [nM]
KY09 (antibody) | 17.7
KY10 (antibody) | 2.64
KY11 (antibody) | 12.1
KY17 (antibody) | 30.6
KY18 (antibody) | 14.2
